According to PMC3401275 (International Journal of Pharmaceutics, 2012):

System: Caco-2 cells
Assay: Cellular accumulation on Caco-2 cell monolayers
Conditions: 30 min incubation, Fig. 3

Question: How did the “increase in the uptake compared to ACV” value turn out when “biotin-ricinoleicacid-acyclovir [B-R-ACV]” was run?
Answer: 10 times
